Laboratory results: ChEMBL document CHEMBL1743341, “Cytochrome p450 enzymes mechanism based inhibitors: common sub-structures and reactivity” (Curr Drug Metab, 2005)

Chains of the proteins cited; added tags and fusions are not shown.
UniProt P10632, whole entry: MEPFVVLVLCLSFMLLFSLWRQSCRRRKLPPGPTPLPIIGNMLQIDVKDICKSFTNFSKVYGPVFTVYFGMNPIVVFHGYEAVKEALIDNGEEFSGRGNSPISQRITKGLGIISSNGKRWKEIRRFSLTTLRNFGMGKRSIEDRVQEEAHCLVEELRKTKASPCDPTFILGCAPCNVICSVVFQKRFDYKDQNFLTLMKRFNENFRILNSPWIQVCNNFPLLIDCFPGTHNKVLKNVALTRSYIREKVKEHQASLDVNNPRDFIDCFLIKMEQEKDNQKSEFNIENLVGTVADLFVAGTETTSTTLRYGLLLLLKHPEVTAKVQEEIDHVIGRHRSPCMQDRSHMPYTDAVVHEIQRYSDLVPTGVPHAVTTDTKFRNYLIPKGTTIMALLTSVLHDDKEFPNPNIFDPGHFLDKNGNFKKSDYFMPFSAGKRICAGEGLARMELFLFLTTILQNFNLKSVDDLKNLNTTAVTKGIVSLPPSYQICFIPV

Tests used:
Cytochrome P450 3A4 = Cytochrome P450 3A4 (Homo sapiens, UniProt P08684); test: Mechanism based inhibition of human cytochrome P450 3A4 measured by midazolam hydroxylase activity; format: ADME
Cytochrome P450 2C8 = Cytochrome P450 2C8 (Homo sapiens, UniProt P10632)
CYP2C8 = CYP2C8 (Homo sapiens, UniProt P10632); test: in vitro; conditions: recombinant CYP2C8, probe paclitaxel
Cytochrome P450 3A2 = target: T1, Cytochrome P450 3A2 (Rattus norvegicus, UniProt P05183); test: Mechanism based inhibition of rat cytochrome P450 CYP3A2; format: ADME
T1 sequence (P05183 whole entry): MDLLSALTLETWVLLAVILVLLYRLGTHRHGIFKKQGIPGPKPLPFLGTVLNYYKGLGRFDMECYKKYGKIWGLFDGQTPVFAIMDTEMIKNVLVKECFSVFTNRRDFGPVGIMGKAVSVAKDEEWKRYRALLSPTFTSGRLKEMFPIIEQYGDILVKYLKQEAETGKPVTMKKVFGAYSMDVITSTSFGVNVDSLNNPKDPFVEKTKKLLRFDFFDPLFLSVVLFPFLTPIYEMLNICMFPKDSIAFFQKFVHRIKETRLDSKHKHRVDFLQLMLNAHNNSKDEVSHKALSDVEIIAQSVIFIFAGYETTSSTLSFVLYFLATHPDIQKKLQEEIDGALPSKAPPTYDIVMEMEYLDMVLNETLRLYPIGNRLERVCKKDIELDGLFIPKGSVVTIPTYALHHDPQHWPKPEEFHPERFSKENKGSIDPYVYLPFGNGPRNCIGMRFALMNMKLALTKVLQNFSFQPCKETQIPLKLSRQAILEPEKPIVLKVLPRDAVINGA

Row | Structure (SMILES) | mechanism based inhibition (Cytochrome P450 3A4) | Ki (Cytochrome P450 2C8) [µM] | kinact (CYP2C8) [s⁻¹] | mechanism based inhibition (Cytochrome P450 3A2)
1 | CNCCC(Oc1ccc(C(F)(F)F)cc1)c1ccccc1 (centres undefined) [FLUOXETINE] | Cytochrome P450 mechanistic inhibitor: PMID 10950845 | 294 | 0.00138 | 
2 | COc1ccc2c(c1)c(CC(=O)O)c(C)n2C(=O)c1ccc(Cl)cc1 [INDOMETHACIN] |  |  |  | Cytochrome P450 mechanistic inhibitor: PMID 1187510
